Here are results for two molecules from ChEMBL document CHEMBL1158469 (J Med Chem, 2009).

Amino acid sequences for entries named in this document (tags omitted).
UniProt Q07817, whole entry: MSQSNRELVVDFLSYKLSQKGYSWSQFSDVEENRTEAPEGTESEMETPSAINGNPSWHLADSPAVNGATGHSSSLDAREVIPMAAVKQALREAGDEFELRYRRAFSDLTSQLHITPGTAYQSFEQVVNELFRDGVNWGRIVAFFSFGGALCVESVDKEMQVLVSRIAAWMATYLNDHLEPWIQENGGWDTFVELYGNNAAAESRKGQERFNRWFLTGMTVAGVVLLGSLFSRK

SMILES strings stand for the structures. The source made the active and inactive calls. The calls are words filed in the database; no cut-off is given here.

The assay addresses Bcl-2-like protein 1 (Homo sapiens) (UniProt Q07817). As to the kind of experiment: Inhibition of Bcl-xL at 200 uM by 1D 1H NMR binding assay.

Consider `Cc1cc2c(C(C)C)c(O)c(O)cc2c(O)c1-c1c(C)cc2c(C(C)C)c(O)c(O)cc2c1O` [APOGOSSYPOL], for which the result was Active. The same measure for `CCc1ccc(CCNC(=O)c2c(O)c(O)cc3c(O)c(-c4c(C)cc5c(C(=O)NCCc6ccc(CC)cc6)c(O)c(O)cc5c4O)c(C)cc23)cc1`: “Active”.
